{
  "source": "patent US7611693B2",
  "about": "“Mechanism-based targeted pancreatic beta cell imaging and therapy” (Board of Regents, The Univerisity of Texas System, priority 2003, dated 2009)",
  "assay": "Animal studies: acute toxicity at the given doses",
  "assay_type": "in vivo",
  "from_the_text": "The present disclosure addresses at least in part some deficiencies in the prior art by providing novel DTPA-antidiabetic conjugates useful for imaging beta-cell function. Through binding of radiolabeled conjugates, such as ^99mTc-DTPA-antidiabetic conjugates, for example, to pancreatic beta receptors, detectable by gamma scintigraphy, pancreatic function is monitored. Four DTPA-antidiabetic conjugates have been synthesized and evaluated. […] These agents are labeled with isotopes in order to assess beta cell function in diabetic or insulinoma patients both pre- and post-treatment. These compositions and methods are useful to provide early diagnosis as well as monitoring of response of pancreatic disease during treatment.",
  "data": [
    {"substance": "DTPA-Glipizide", "values": [
      {"measurement": "acute toxicity", "result": "no acute toxicity"}
    ]}
  ]
}
